From PubChem BioAssay AID504382 (The Scripps Research Institute Molecular Screening Center, 2011)
Only a part is listed here, and it is no random draw. The source made the active and inactive calls.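 How the source made its calls: active means mean activation above a cutoff of low control average plus 3 SD from the earlier screen (cut at about 12% in these data); inactive means the rest.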

Assay: compound fluorescence interference without thin filaments, confirmation, artefact control for cardiac RTF calcium sensitizer project, biochemical (AID 504382)
Conditions: IANBD fluorescence interference counterscreen, buffer, EC20 Ca2+; at 7.2 µM; active compounds read high; scaled: EC20 calcium 0, EC100 calcium 100
In short: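 Technique: fluorescence, 480/540 nm / Medium: MOPS-based buffer with KCl, MgCl2, EGTA, NTA, DTT, pH 7.2 / Probe or stimulus: calcium at EC20 level, 0.472 mM final / Repeats: triplicate wells per compound / Times: 15 min compound exposure at 25 °C / Measure: compound fluorescence interference relative to control well signal range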
With CN(C)C(=O)c1c([N+](=O)[O-])cc([N+](=O)[O-])cc1[N+](=O)[O-] the fluorescence artifact activation was inactive: 0.55%.
For Cc1cccc(C)c1OP(C)(=O)Nc1ccc(SC(F)(F)F)cc1 (configuration not stated), the fluorescence artifact activation was inactive: 0.07%.
